US20100179118A1, “CYCLIC AMINOALKYLCARBOXAMIDE DERIVATIVE” (DAINIPPON SUMITOMO PHARMA CO., LTD., priority 2006, published 2010)

The compounds below were run on BN rat DNCB repetitive application dermatitis model (assay: Suppressive action on BN rat DNCB repetitive application dermatitis model). Conditions: dose 2 mg/kg, oral once a day; AUC of ear thickness increase vs solvent control; male BN rat.
Format: in vivo
Description: Suppressive Action on BN Rat DNCB Repetitive Application Dermatitis Model
A 8-week-old male rat was sensitized by applying 30 μL of 1.5 wt % solution of dinitrochlorobenzene (DNCB) dissolved in acetone:olive oil=4:1 solution to the right ear on day 1 and 3 days later. Starting from one week thereafter, the same solution was consecutively applied to the right ear every other day in total of 6 times, whereby chronic dermatitis was induced in which the skin thickness increases with time. As for the level of dermatitis, the thickness was measured with a dial gauge thickness before application of the solution, and expressed by the difference from the measured thickness of the right ear immediately before induction on day 1 of the induction. The drug was suspended in 0.5 wt % tragacanth, and orally administered once a day immediately before induction on day 1 of the induction and after 24 hr value measurement the next day. The changes in the ear tumentia with time were monitored, and the area under the curve in a graph showing the values up to 48 hr after the final induction was calculated, from which the percent suppression relative to the area of the solvent control group was determined. As a comparison control compound, prednisolone, which is a steroid, was used.

Row | Compound | suppression (%) at 48 hr after final induction
1 | O=C(c1ccc(C(F)(F)F)cc1)N1CCC(N(C(=O)CN2CCCC2)c2ccccc2)CC1 | 39.6%
2 | O=C(c1ccc(C(F)(F)F)cc1)N1CCC(N(C(=O)CN2CCCCC2)c2ccccc2)CC1 | 38.5%
3 | O=C(c1ccc(Cl)cc1)N1CCC(N(C(=O)CN2CCCCC2)c2ccccc2)CC1 | 38.4%

These compounds were tested on TMA (trimellitic anhydride) repetitive application dermatitis model (assay: Suppressive action on TMA (trimellitic anhydride) repetitive application dermatitis model). Conditions: dose 20 mg/kg, oral twice (30 min before and 4 hr after induction); ear thickness vs solvent control; male BALB/c mice.
Format: in vivo

Row | Compound | right ear suppression (%) at 8 hr after final induction
4 | O=C(CN1CCOCC1)N(c1ccccc1)C1CCN(C(=O)[C@H]2CC[C@H](C(F)(F)F)CC2)CC1 (relative stereo) | 63.9%
5 | O=C(c1ccc(Cl)cc1)N1CCC(N(C(=O)CCN2CCCC2)c2ccccc2)CC1 | 40.6%
6 | O=C(c1ccc(C(F)(F)F)cc1)N1CCC(N(C(=O)CN2CCOCC2)c2ccccc2)CC1 | 50.7%
7 | O=C(c1ccc(C(F)(F)F)cc1)N1CCC(N(C(=O)CN2CCCC2)c2ccccc2)CC1 | 52.1%
8 | O=C(c1ccc(C(F)(F)F)c(F)c1)N1CCC(N(C(=O)CN2CCCCC2)c2ccccc2)CC1 | 58.3%
9 | O=C(c1ccc(C(F)(F)F)c(F)c1F)N1CCC(N(C(=O)CN2CCOCC2)c2ccccc2)CC1 | 60.6%
10 | O=C(c1cc(F)c(Cl)cc1F)N1CCC(N(C(=O)CN2CCCCC2)c2ccccc2)CC1 | 55.7%
11 | O=C(c1ccc(C(F)(F)F)cc1)N1CCC(N(C(=O)CN2CCCCC2)c2ccccc2)CC1 | 72.5%

Same assay, conditions: dose 80 mg/kg, oral twice (30 min before and 4 hr after induction); ear thickness vs solvent control; male BALB/c mice

Row | Compound | right ear suppression (%) at 8 hr after final induction
12 | O=C(c1ccc(C(F)(F)F)cc1)N1CCC(N(C(=O)CN2CCC(O)C2)c2ccccc2)CC1 (centres unmarked) | 56.0%
13 | CN1CCN(CCC(=O)N(c2ccccc2)C2CCN(C(=O)c3ccc(C(F)(F)F)cc3)CC2)CC1 | 62.0%
14 | CN(C)C1CCN(CC(=O)N(c2ccccc2)C2CCN(C(=O)c3ccc(C(F)(F)F)cc3)CC2)C1 (centres unmarked) | 58.1%
